One compound from PMC8620908, “Design, Synthesis, In Vitro Anticancer Evaluation and Molecular Modelling Studies of 3,4,5-Trimethoxyphenyl-Based Derivatives as Dual EGFR/HDAC Hybrid Inhibitors” (Pharmaceuticals, 2021) can be followed below.

Details in all cases: HepG2, versus control
Experiment [1] deals with Caspase-8. The experiment in a line: Caspase-8 level assay in HepG2 cancer cell line. In kind it is cell-based, human.
In experiment [2] the test system is Caspase-3. The experiment in a line: Caspase-3 level assay in HepG2 cancer cell line. In kind it is cell-based, human.
The subject of experiment [3] is Bax. The experiment in a line: Bax level assay in HepG2 cancer cell line. It is filed as cell-based.
For experiment [4], the system named is Bcl-2. The experiment in a line: Bcl-2 level assay in HepG2 cancer cell line. In kind it is cell-based.

Regarding `CN[C@@H]1C[C@H]2O[C@@](C)([C@@H]1OC)n1c3ccccc3c3c4c(c5c6ccccc6n2c5c31)C(=O)NC4` [Staurosporine], the “Caspase-8 Fold Change” value in experiment [1] came out at 3.93 fold. Besides, the “Caspase-3 Fold Change” value in experiment [2] stood at 4.71 fold. Further, the “Bax Fold Change” value in experiment [3] is 3.4 fold. In addition, the “Bcl-2 Fold Change” value in experiment [4] was determined as 0.36 fold.
